Tests used:
[1] = test system: U87 glioma cell spheroids; test: U87 glioma spheroid invasion in collagen I matrix
[2] = test system: three additional glioma cell lines and two human glioblastoma biopsies (X12 and X14)
Protocol: Spheroids from 6 glioma cell lines were grown in the presence of LiCl (10 mM or 20 mM).
Cell lines and chemicals. The U87 and U87ΔEGFR cell lines were provided by Dr. Webster Cavenee (Ludwig Institute for Cancer Research, La Jolla, Calif.). The human glioblastoma biopsies, X12 and X14 (from Dr. C. David James, Mayo Clinic, Rochester, Minn.), were maintained as flank tumors in nude mice as described (5). All cells were grown in DMEM with 10% FBS and 1% penicillin-streptomycin.

How did the “invasion of glioma spheroids” value [1] turn out when `O=C1NC(=O)C(c2ccccc2[N+](=O)[O-])=C1Nc1ccc(O)c(Cl)c1` [SB415286] was run?
The value was “dose-dependent blockade of invasion”.

And the “reversibility of the invasion blockade” value [1]?
The value was “reversible”.

What about the “spheroid expansion as a percentage of control spheres” value [1] of the same molecule?
Its value is “dose dependent decrease in spheroid expansion”.

And the “spheroid expansion as a percentage of control spheres” value [2]?
Its value is “dose dependent decrease in spheroid expansion”.

What about the “spheroid invasion in further glioma cell lines and biopsies” value [2] of the same molecule?
Its value is “observed in the full panel of cell lines”.
